Measured values published in patent US20060035889A1, “Treatment for methamphetamine addiction and reduction of methamphetamine use using serotonin antagonists” (priority 2004, published 2006).

Assays:
[1] = test system: ΔFosB; test: Western blotting of ΔFosB in brain regions after METH withdrawal; type: in vivo, rat; details: mirtazapine treatment group, day 31; data not shown
[2] = test system: METH-sensitized rats; test: Reversal of METH-induced behavioral sensitization by 5-HT2A/2C antagonists (motor activity after acute METH challenge); details: rat, in vivo
Description: Automation of observational evaluations was accomplished using computerized small animal monitors (AccuScan Instr. Inc., Columbus, Ohio). […] One feature of drug-induced behavioral sensitization is heterogeneity of motor responses and the AccuScan monitors quantify numerous behavioral indices. This is a critical point for the motor profile is exquisitely related to METH dose, the drug history of the rat and observation time. After 3- or 31-days of withdrawal from repeated METH injections, rats were allowed to achieve baseline motor activity with a 30 min habituation period, challenged with 1 mg/kg sc METH and monitored for 90 min. As shown in FIGS. 1a-b, a “sensitized” motor response was clearly expressed in the METH-pretreatment group to the METH challenge at the 3-day withdrawal period for both Horizontal Activity and Stereotypy Counts (data not shown) and with slight early effects on Vertical Movements.
Multiple 5-HT2A/2C antagonists with differing pharmacological profiles were tested for their ability to ameliorate METH-induced behavioral sensitization when administered after sensitization has developed. […]. The doses were selected based on the antagonists' ability to block 5-HT2A- and 5-HT2C-mediated activity and their pharmacokinetic profiles. […]

| SMILES | ΔFosB signal in the nucleus accumbens [1] | number of vertical movements [2] |
| --- | --- | --- |
| CN1CCN2c3ncccc3Cc3ccccc3[C@@H]2C1 (racemic) [mirtazapine, 1,2,3,4,10,14b-hexahydro-2-methyl-pyrazino[2,1-a]pyrido[2,3-c]benzazepine] | loss of increased ΔFosB early signal |  |
| CN1CCN2c3ccccc3Cc3ccccc3C2C1 (centres unmarked) [mianserin] |  | appeared to have an independent effect |
